Reference: patent publication US20250283871A1, “COMPOSITIONS AND METHODS FOR MODULATING THE INTERACTION BETWEEN SS18-SSX FUSION ONCOPROTEIN AND NUCLEOSOMES” (Dana-Farber Cancer Institute, Inc., priority 2020, published 2025)

Assays:
[1] = biological target: H2A(12to17)K13ac1 histone form in mammalian mononucleosomes from HEK-293T cells (mammalian (HEK-293T cells)) (UniProt P0C0S8); assay: MBP-SSX1 78aa pull-down of HEK293T mononucleosomes, targeted histone MS, sample MM04_D01
[2] = biological target: H2A(12to17)K15ac1 histone form in mammalian mononucleosomes from HEK-293T cells (mammalian (HEK-293T cells)) (UniProt P0C0S8); assay: as above
[3] = biological target: H2A(4to11)K5ac1 histone form in mammalian mononucleosomes from HEK-293T cells (mammalian (HEK-293T cells)) (UniProt P0C0S8); assay: as above
[4] = biological target: H2A(4to11)K9ac1 histone form in mammalian mononucleosomes from HEK-293T cells (mammalian (HEK-293T cells)) (UniProt P0C0S8); assay: as above
[5] = biological target: H2A(4to11)ac0 histone form in mammalian mononucleosomes from HEK-293T cells (mammalian (HEK-293T cells)) (UniProt P0C0S8); assay: as above
[6] = biological target: H2B(1to29)K5ac1 histone form in mammalian mononucleosomes from HEK-293T cells (mammalian (HEK-293T cells)) (UniProt P62807); assay: as above
[7] = biological target: H2B(1to29)ac0 histone form in mammalian mononucleosomes from HEK-293T cells (mammalian (HEK-293T cells)) (UniProt P62807); assay: as above
[8] = biological target: H3K4me2 histone form in mammalian mononucleosomes from HEK-293T cells (mammalian (HEK-293T cells)) (UniProt P68431); assay: as above
[9] = biological target: H3K4me3 histone form in mammalian mononucleosomes from HEK-293T cells (mammalian (HEK-293T cells)) (UniProt P68431); assay: as above
[10] = biological target: H4(20to23)K20me1 histone form in mammalian mononucleosomes from HEK-293T cells (mammalian (HEK-293T cells)) (UniProt P62805); assay: as above
[11] = biological target: H4(20to23)K20me2 histone form in mammalian mononucleosomes from HEK-293T cells (mammalian (HEK-293T cells)) (UniProt P62805); assay: as above
[12] = biological target: H4(20to23)K20me3 histone form in mammalian mononucleosomes from HEK-293T cells (mammalian (HEK-293T cells)) (UniProt P62805); assay: as above
[13] = biological target: H4(4to17)K12ac1K16ac1me0 histone form in mammalian mononucleosomes from HEK-293T cells (mammalian (HEK-293T cells)) (UniProt P62805); assay: as above
[14] = biological target: H4(4to17)K12ac1me0 histone form in mammalian mononucleosomes from HEK-293T cells (mammalian (HEK-293T cells)) (UniProt P62805); assay: as above
[15] = biological target: H4(4to17)K5ac1K8ac1K12ac1K16ac1me0 histone form in mammalian mononucleosomes from HEK-293T cells (mammalian (HEK-293T cells)) (UniProt P62805); assay: as above
[16] = biological target: H4(4to17)K5ac1K8ac1K16ac1me0 histone form in mammalian mononucleosomes from HEK-293T cells (mammalian (HEK-293T cells)) (UniProt P62805); assay: as above
[17] = biological target: H4(4to17)K5ac1me0 histone form in mammalian mononucleosomes from HEK-293T cells (mammalian (HEK-293T cells)) (UniProt P62805); assay: as above
[18] = biological target: H4(4to17)K8ac1K12ac1me0 histone form in mammalian mononucleosomes from HEK-293T cells (mammalian (HEK-293T cells)) (UniProt P62805); assay: as above
[19] = biological target: HEK-293T mononucleosomes with histone H3K4me2 (mammalian (HEK-293T cells)) (UniProt P68431); assay: MBP-SSX1 78aa pull-down of HEK293T mononucleosomes, targeted quantitative histone MS, replicate 1
[20] = biological target: HEK-293T mononucleosomes with histone H4(4to17)K16ac1me0 (mammalian (HEK-293T cells)) (UniProt P62805); assay: as above
[21] = biological target: HEK-293T mononucleosomes with histone H4(4to17)K8ac1K12ac1K16ac1me0 (mammalian (HEK-293T cells)) (UniProt P62805); assay: as above
[22] = biological target: HEK-293T mononucleosomes with histone H4(4to17)ac0me0 (mammalian (HEK-293T cells)) (UniProt P62805); assay: as above

log2 normalized (Light/Heavy) intensity ratio [1]: 0.032 log2 | log2 normalized (Light/Heavy) intensity ratio [2]: 0.042 log2 | log2 normalized (Light/Heavy) intensity ratio [3]: 0.569 log2 | log2 normalized (Light/Heavy) intensity ratio [4]: -0.254 log2 | log2 normalized (Light/Heavy) intensity ratio [5]: -0.026 log2 | log2 normalized (Light/Heavy) intensity ratio [6]: 0.273 log2 | log2 normalized (Light/Heavy) intensity ratio [7]: 0.152 log2 | log2 normalized (Light/Heavy) intensity ratio [8]: 0.778 log2 | log2 normalized (Light/Heavy) intensity ratio [9]: 0.766 log2 | log2 normalized (Light/Heavy) intensity ratio [10]: -0.427 log2 | log2 normalized (Light/Heavy) intensity ratio [11]: -0.414 log2 | log2 normalized (Light/Heavy) intensity ratio [12]: -0.109 log2 | log2 normalized (Light/Heavy) intensity ratio [13]: 0.204 log2 | log2 normalized (Light/Heavy) intensity ratio [14]: -0.207 log2 | log2 normalized (Light/Heavy) intensity ratio [15]: 0.276 log2 | log2 normalized (Light/Heavy) intensity ratio [16]: 0.474 log2 | log2 normalized (Light/Heavy) intensity ratio [17]: -0.053 log2 | log2 normalized (Light/Heavy) intensity ratio [18]: -0.198 log2 | log2 (Light/Heavy) ratio normalized to average of pull down input controls [19]: -0.102 log2 | log2 (Light/Heavy) ratio normalized to average of pull down input controls [20]: -0.161 log2 | log2 (Light/Heavy) ratio normalized to average of pull down input controls [21]: -0.258 log2 | log2 (Light/Heavy) ratio normalized to average of pull down input controls [22]: 0.203 log2
Substance: MBP-SSX1 (78aa) (from UniProt P0AEX9 27-392)
